Data as given in patent US20070160574A1, “Design of CXC chemokine analogs for the treatment of human diseases” (priority 2000, published 2007).

Experiments:
[1] = tested on: haematopoietic progenitor/stem cells in Balb/c mice; test: Circulating haematopoietic progenitor/stem cells (CFU) after IL-8 mimetic in Balb/c mice; type: in vivo, mouse; conditions: subcutaneous 1-25 mg/kg, female Balb/c mice, 30 minutes to 48 hours, FIGS. 7-8
Protocol: (§1) The experiments consisted of the following groups of female Balb/c mice (Charles River Lab's): (1) an untreated control group of 10 mice; and (2) test groups of 10 mice each.
(§2) The control and test groups of 20-23 g mice were randomly grouped in appropriately labeled cages and identified by cage markings and ear punch. The test groups were tested one time subcutaneously with the test analog at doses of 1, 5, 10, 15, 20, or 25 mg/kg in volumes of approximately 200 μl. The mice were anesthetized immediately before blood collection. Blood samples were obtained from the mice at 30 minutes, 1 hour, 4 hours, 6 hours, 24 hours and/or 48 hours after administration of the test mimetic. […]
The number of haematopoietic progenitor/stem cells was determined as follows. The volume of blood in each microfuge tube was determined and nine times the volume of ammonium chloride was added. […] The number of nucleated cells per mL of blood was counted, and all cells were plated in duplicate in standard methylcellulose to determine the number of CFUs including the colony-forming unit granulocyte-macrophage (CFU-GM), the burst-forming unit erythroid (BFU-E), and the colony-forming unit granulocyte erythrocyte macrophage megakaryocyte (CFU-GEMM). […] The total CFU per mL of blood from the individual mice was determined. […]

[2] = tested on: circulating neutrophils in Balb/c mice; test: Circulating neutrophil counts after IL-8 mimetic in Balb/c mice; type: in vivo, mouse; conditions: subcutaneous 1-25 mg/kg, female Balb/c mice, 30 minutes to 24 hours, FIGS. 5-6
Protocol: as §1
as §2, with “mimetic. Blood was collected with an EDTA S-Monovette syringe (Sarstedt) and 25 G needle through a cardiac puncture. Blood was mixed gently by 5 inversions then expelled into a microcentrifuge tube. Differential and CBC analyses were performed on a Hemavet 850 FS (Drew Scientific).” for “mimetic.”
The test mimetic was administered by subcutaneous injection into female Balb/c mice in amounts of 1, 5, 10, 15, 20, or 25 mg/kg. […] Complete blood counts and differentials were determined using a Hemavet. […]
FIG. 6 describes the kinetics of the rise in circulating neutrophil counts in response to the administration of the test mimetic according to some embodiments. […] Complete blood counts and differentials were determined using a Hemavet®. […]

[3] = tested on: IL-8 receptor (differentiated HL-60 cells); test: Calcium mobilization in differentiated HL-60 cells, Fluo-4/AM; type: cell-based; conditions: over control wells (plain medium = 1.0), about 10 to 200 μg/ml
Protocol: The HL-60 cells are cultured as described above, harvested and suspended in Tyrode's salt solution at a density of about 2×10^6 cells/ml. The Tyrode's salt solution contains about 137 mM NaCl, 2.7 mM KCl, 1 mM MgCl2, 1 mM CaCl2, 0.2 mM NaH2PO4, 12 mM NaHCO3, and 5.5 mM glucose.
The cells are labeled with 4 μM of Fluo-4/AM (Molecular Probes, Inc.) for 45 minutes at 37° C. to measure calcium mobilization from cells. The label is a dye that fluoresces when bound to calcium. […] An increase in fluorescence indicates an increase in calcium mobilization. The cells are washed three times with the Tyrode's salt solution after labeling and re-suspended at 5×10^6 cells/ml.
Changes in the level of cellular fluorescence are read in a Thermo Labsystems Fluorskan Acsent fluorescence plate reader (VWR Scientific Prod's). The controls include cells treated with either the native chemokine or the plain medium of Tyrode's Salt Solution. Data is expressed using 1.0 as the standard level of fluorescence in the plain medium. The reported values represent the mean of at least duplicate measurements from wells in one or more experiments.

[4] = target: T1, CXCR3 receptor (CXCR-3/300-19 cells) (Homo sapiens, UniProt P49682); test: [Ca2+]i mobilization by IP-10 analogs, FLIPR Calcium 3 kit, CXCR-3/300-19 cells; type: cell-based; conditions: for effect on intracellular calcium mobilization (in words): FIG. 1, 100 μM, comparison between analogs; for calcium mobilization activity of the cells: CXCR-3/300-19 cells
T1 construct: expressed in transfected cells; host or cells: 300-19 mouse pre-B lymphocytes (CXCR-3/300-19)
T1 sequence (P49682 1-368): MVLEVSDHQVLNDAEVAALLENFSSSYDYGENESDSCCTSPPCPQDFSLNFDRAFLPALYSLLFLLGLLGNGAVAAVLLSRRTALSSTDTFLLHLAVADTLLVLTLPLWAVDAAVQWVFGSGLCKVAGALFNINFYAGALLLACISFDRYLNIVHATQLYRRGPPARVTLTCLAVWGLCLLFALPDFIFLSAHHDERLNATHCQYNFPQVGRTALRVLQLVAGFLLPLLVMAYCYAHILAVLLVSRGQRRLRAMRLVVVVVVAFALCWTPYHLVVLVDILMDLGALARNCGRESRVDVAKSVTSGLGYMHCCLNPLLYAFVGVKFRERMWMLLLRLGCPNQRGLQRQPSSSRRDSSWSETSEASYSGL
Protocol: Binding and Calcium Mobilization: Suspensions of CXCR-3/300-19 cells were used to assess binding and intracellular calcium mobilization induced by IP-10 analogs. These are mouse pre-B lymphocytes transfected with the CXCR3 receptor, (Moser, et al). The cells were washed in RPMI media and resuspended in RPMI media supplemented with 10% FCS, then plated at 1.2×10^5 cells per well of 96-well black wall/clear bottom plates coated with poly-D-lysine (Becton Dickinson) and loaded with 100 uL fluorescent calcium indicator FLIPR Calcium 3 assay kit component A (Molecular Probes) for 1 hr at 37° C. The cells on the plates were then spun at 1000 rpm for 15 minutes at room temperature.
Each of the sequences successfully bound to the cellular receptors. The intracellular calcium mobilization in response to 25 uL (0-100000 nM final concentrations) of the appropriate and various concentrations of analogue was measured at 37° C. by monitoring fluorescence as a function of time in all the wells using the Flexstation Fluorometric Imaging Plate Reader (Molecular Devices). All analogues were run simultaneously with rhIP-10 (R&D Systems) as the standard. Table 7 provides the dosage effect of the binding of each of the IP-10 analogs on the calcium mobilization activity of the cells.

calcium mobilization activity of the cells ([4]; dosage 1.2 μM)	calcium mobilization activity of the cells ([4]; dosage 3.7 μM)	calcium mobilization activity of the cells ([4]; dosage 11.1 μM)	calcium mobilization activity of the cells ([4]; dosage 33.3 μM)	calcium mobilization activity of the cells ([4]; dosage 100 μM)	Structure (SMILES)	circulating haematopoietic progenitor/stem cells (CFU) (in words) [1]	circulating neutrophils (in words) [2]	Average fold increase in calcium mobilization ([3]; listed as 1647)	effect on intracellular calcium mobilization (in words) [4]	Average fold increase in calcium mobilization ([3]; listed as 1666)
–	–	–	–	–	CC[C@H](C)[C@H](NC(=O)[C@H](Cc1ccccc1)NC(=O)[C@H](CCC(N)=O)NC(=O)[C@H](C)NC(=O)[C@H](CCCNC(=N)N)NC(=O)[C@H](CC(C)C)NC(=O)[C@H](CCC(=O)O)NC(=O)[C@H](CCCCN)NC(=O)[C@H](C)NC(=O)[C@@H](N)CO)C(=O)N[C@@H](CCCCN)C(=O)N[C@H](C(=O)N[C@@H](Cc1ccc(O)cc1)C(=O)N[C@@H](CO)C(=O)N[C@@H](CCCCN)C(=O)NCCCCCCCCCCC(=O)N[C@@H](CC(N)=O)C(=O)N[C@@H](Cc1c[nH]c2ccccc12)C(=O)N[C@H](C(=O)N[C@@H](CCC(N)=O)C(=O)N[C@@H](CCCNC(=N)N)C(=O)N[C@H](C(=O)N[C@H](C(=O)N[C@@H](CCC(=O)O)C(=O)N[C@@H](CCCCN)C(=O)N[C@@H](Cc1ccccc1)C(=O)N[C@@H](CC(C)C)C(=O)N[C@@H](CCCCN)C(=O)N[C@@H](CCCNC(=N)N)C(=O)N[C@@H](C)C(=O)N[C@@H](CCC(=O)O)C(=O)N[C@@H](CC(N)=O)C(N)=O)C(C)C)C(C)C)C(C)C)[C@@H](C)O [SEQ ID NO:1647]	increasing the number	increasing the number	57.3	–	–
17.4%	15.4%	12.5%	13.3%	3.4%	CC[C@H](C)[C@H](NC(=O)[C@H](CS)NC(=O)[C@H](CCC(N)=O)NC(=O)[C@H](CS)NC(=O)[C@H](CCCNC(=N)N)NC(=O)[C@H](CC(C)C)NC(=O)[C@H](CCC(=O)O)NC(=O)[C@H](CCCCN)NC(=O)[C@H](C)NC(=O)[C@@H](N)CO)C(=O)N[C@@H](CCCCN)C(=O)N[C@H](C(=O)N[C@@H](Cc1ccc(O)cc1)C(=O)N[C@@H](CO)C(=O)N[C@@H](CCCCN)C(=O)NCC(=O)NCC(=O)NCC(=O)NCC(=O)N[C@@H](CC(N)=O)C(=O)N[C@@H](Cc1c[nH]c2ccccc12)C(=O)N[C@H](C(=O)N[C@@H](CCC(N)=O)C(=O)N[C@@H](CCCNC(=N)N)C(=O)N[C@H](C(=O)N[C@H](C(=O)N[C@@H](CCC(=O)O)C(=O)N[C@@H](CCCCN)C(=O)N[C@@H](Cc1ccccc1)C(=O)N[C@@H](CC(C)C)C(=O)N[C@@H](CCCCN)C(=O)N[C@@H](CCCNC(=N)N)C(=O)N[C@@H](C)C(=O)N[C@@H](CCC(=O)O)C(=O)N[C@@H](CC(N)=O)C(N)=O)C(C)C)C(C)C)C(C)C)[C@@H](C)O [SEQ ID NO:1645]	–	–	–	decreased the effect on calcium mobilization dramatically	–
15.2%	13.8%	15.4%	20%	3.1%	CC(C)C[C@H](NC(=O)[C@H](Cc1ccccc1)NC(=O)[C@H](CCCCN)NC(=O)[C@H](CCC(=O)O)NC(=O)[C@@H](NC(=O)[C@@H](NC(=O)[C@H](CCCNC(=N)N)NC(=O)[C@H](CCC(N)=O)NC(=O)[C@@H](NC(=O)[C@H](Cc1c[nH]c2ccccc12)NC(=O)[C@@H](N)CC(N)=O)C(C)C)C(C)C)C(C)C)C(=O)N[C@@H](CCCCN)C(=O)N[C@@H](CCCNC(=N)N)C(=O)N[C@@H](C)C(=O)N[C@@H](CCC(=O)O)C(=O)N[C@@H](CC(N)=O)C(N)=O [SEQ ID NO:1642]	–	–	–	decreased the calcium mobilization dramatically	–
–	–	–	–	–	CC[C@H](C)[C@H](NC(=O)[C@H](Cc1ccccc1)NC(=O)[C@H](CCC(N)=O)NC(=O)[C@H](Cc1ccc(O)cc1)NC(=O)[C@H](CCCNC(=N)N)NC(=O)[C@H](CC(C)C)NC(=O)[C@H](CCC(=O)O)NC(=O)[C@H](CCCCN)NC(=O)[C@H](C)NC(=O)[C@H](CO)NC(C)=O)C(=O)N[C@@H](CCCCN)C(=O)N[C@H](C(=O)N[C@@H](Cc1ccc(O)cc1)C(=O)N[C@@H](CO)C(=O)N[C@@H](CCCCN)C(=O)NCCCCCCCCCCC(=O)N[C@@H](CC(N)=O)C(=O)N[C@@H](Cc1c[nH]c2ccccc12)C(=O)N[C@H](C(=O)N[C@@H](CCC(N)=O)C(=O)N[C@@H](CCCNC(=N)N)C(=O)N[C@H](C(=O)N[C@H](C(=O)N[C@@H](CCC(=O)O)C(=O)N[C@@H](CCCCN)C(=O)N[C@@H](Cc1ccccc1)C(=O)N[C@@H](CC(C)C)C(=O)N[C@@H](CCCCN)C(=O)N[C@@H](CCCNC(=N)N)C(=O)N[C@@H](C)C(=O)N[C@@H](CCC(=O)O)C(=O)N[C@@H](CC(N)=O)C(N)=O)C(C)C)C(C)C)C(C)C)[C@@H](C)O [SEQ ID NO:1666]	–	–	–	–	143.8
